{"source": "paper PMC10838953", "key": {"A375 cells": {"system": "A375 cells", "settings": "4 μM, 48 h"}, "786-O cells": {"system": "786-O cells", "settings": "4 μM, 48 h"}}, "data": [{"smiles": "O=C(O)c1ccc2c(c1)nc(Nc1cccc(Cl)c1)c1ccncc12", "note": "[CX-4945, silmitasertib]", "values": [{"measurement": "proliferation, cell death and apoptosis", "setting": "A375 cells", "result": "almost completely insensitive"}, {"measurement": "proliferation, cell death and apoptosis", "setting": "786-O cells", "result": "only a moderate effect on 786-O cell growth and was a poor apoptosis inducer"}]}]}
